From EP4772530A1, “PEPTIDE TARGETING SOMATOSTATIN RECEPTOR, DRUG CONJUGATE AND USE THEREOF” (Mainline Biosciences (Shanghai) Co., Ltd., priority 2023, dated 2025) come the findings set out here.

Where two headings read alike, the source gives them in different places.

This assay concerns NCI-H69 cells. The following applies: for Tumor Volume (Mean ± SEM): Etoposide 10 mpk, intravenous, twice a week.

On to `COc1cc([C@@H]2c3cc4c(cc3[C@@H](O[C@@H]3O[C@@H]5CO[C@@H](C)O[C@H]5[C@H](O)[C@H]3O)[C@H]3COC(=O)[C@H]23)OCO4)cc(OC)c1O` [Etoposide, etoposide], for which the “tumor inhibition compared to the vehicle control group” value (By Day 32, etoposide 10 mg/kg, p< 0.001) is recorded as “significant tumor inhibition”. In addition, the “Tumor Volume (Mean ± SEM)” value (Day 18) turned out to be 148±12 mm3; the “Tumor Volume (Mean ± SEM)” value (Day 21) is on record as 197±12 mm3; the “Tumor Volume (Mean ± SEM)” value (Day 25) stood at 283±31 mm3; the “Tumor Volume (Mean ± SEM)” value (Day 28) was found to be 346±55 mm3; the “Tumor Volume (Mean ± SEM)” value (Day 32) is recorded as 423±101 mm3; the “Tumor Volume (Mean ± SEM)” value (Day 35) amounted to 541±176 mm3. For the same compound, the “Tumor Volume (Mean ± SEM)” value is given as 740±243 mm3 (Day 39), 808±276 mm3 (Day 42) and 1057±365 mm3 (Day 46).
